{"source": "paper PMC7619101", "key": {"[1]": {"biological_target": "GluA4, edited at the R743G site (rat)"}}}
{"substance": "GluA4 H233A (receptor)", "values": [{"measurement": "recovery from desensitization, fold slowing against GluA4 wild type", "setting": "GluA4 H233A (rat)", "result": 1.4, "unit": "fold"}]}
{"substance": "GluA4 R230A/H233A (receptor)", "values": [{"measurement": "recovery from desensitization, tau (HEK293T cells with TARP-γ2, 10 mM glutamate two-pulse protocol)", "setting": "GluA4 R230A/H233A (rat)", "result": 24.3, "unit": "ms"}]}
{"substance": "GluA4, edited at the R743G site (receptor)", "values": [{"measurement": "recovery from desensitization, tau (HEK293T cells with TARP-γ2, 10 mM glutamate two-pulse protocol)", "setting": "[1]", "result": 17.1, "unit": "ms"}]}
